Measurements from article PMC5933457, “Probing biological activity through structural modelling of ligand-receptor interactions of 2,4-disubstituted thiazole retinoids” (Bioorganic & Medicinal Chemistry, 2018).

Protein sequences, listed by entry. Tags and fused reporters are not part of them. Residues count along the entry.
UniProt P10826, 183-417 limits assumed: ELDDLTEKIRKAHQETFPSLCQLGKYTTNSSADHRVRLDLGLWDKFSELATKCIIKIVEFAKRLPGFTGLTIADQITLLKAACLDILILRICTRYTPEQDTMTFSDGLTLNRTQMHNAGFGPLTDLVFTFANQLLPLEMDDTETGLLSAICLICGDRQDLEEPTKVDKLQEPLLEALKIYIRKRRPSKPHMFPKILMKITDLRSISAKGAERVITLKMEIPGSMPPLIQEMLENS

Biological target: T1, RARβ ligand-binding domain (GST-RAR-β-LBD) (Homo sapiens, UniProt P10826)
T1 construct: purchased Invitrogen
Assay: LanthaScreen TR-FRET RARβ co-activator (receptor binding) assay
Format: biochemical
Details: in words, Fig. 6B
Experimental: These predictions were tested through a receptor-binding assay for each RAR isotype (Fig. 6), where the assay signal is dependent on two parameters: the binding affinity of ligand to the RAR LBD, and the affinity of the coactivator for the ligand-LBD complex. […]
The binding interaction of each retinoid with RARα, β and γ were determined in vitro by time-resolved fluorescence resonance energy transfer (TR-FRET) using the LanthaScreen TR-FRET RARα, RARβ, and RARγ co-activator assays according to the manufacturer’s (Invitrogen™) instructions.[23] […] Each ligand assay was performed in duplicate and measured using a PHERAstar FS Microplate Reader (BMG Labtech, Ortenberg, Germany) with instrument settings as described in the manufacturer’s instructions for LanthaScreen assays. The TR-FRET signal was expressed as the ratio of the signals at 520 nm and 490 nm. […]
The readout of the Lanthascreen TR-FRET binding assay is based on a Forster resonance energy transfer (FRET) signal generated from the interaction between a terbium-labelled anti-glutathione-S-transferase (GST) antibody and a fluorescein-labelled coactivator peptide. […]

**Q.** How did the “binding-curve upper asymptote (coactivator recruitment), RARβ” value turn out when `CC1=C(/C=C/C(C)=C/C=C/C(C)=C/C(=O)O)C(C)(C)CCC1` [ATRA, all-trans-retinoic acid, reference compound] was run?
**A.** The value was “high asymptotes”.
